For 63 molecules, activity score results are on record in PubChem BioAssay AID602363 (Broad Institute, 2012).

In all, about 350,000 compounds went through this assay and about 450 (0.13%) were called active. What follows is part of a selection rich in actives, with near analogues and random picks from the rest. A number with no mark means an inactive call.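 The calls were made as follows: active = replicate mean at a twofold rise or more (about +100% in these data); inactive = the rest.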

The assay can be described thus: UUG initiation codon usage in yeast – whole organism, S. cerevisiae, single point, plate reader, primary screen (AID 602363).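 Also: firefly luciferase made from a UUG start codon reports start codon fidelity.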 As to conditions: S. cerevisiae UUG-firefly luciferase reporter, luminescence/redox ratio; at 18.7 µM; hits give high values. For orientation: A reporter such as luciferase makes a cellular process visible.
In the case of `COc1cccc(S(=O)(=O)N[C@@H]2CC[C@@H](CCNC(=O)Cc3ccncc3)O[C@H]2CO)c1`, the activity score was 0.154%.

Turning to `C[C@@H]1CN([C@@H](C)CO)C(=O)c2cc(-c3cccnc3)cnc2O[C@@H]1CN(C)C(=O)C1CC1`, the activity score is -5.34%.

On to `O=C(C[C@@H]1C[C@@H]2c3cc(NC(=O)Nc4ccc(C(F)(F)F)cc4)ccc3O[C@@H]2[C@@H](CO)O1)NCCc1ccccc1`, for which the activity score is -18.2%.

On to `C[C@@H]1CCCCO[C@H](CN(C)S(=O)(=O)c2cccs2)[C@@H](C)CN([C@@H](C)CO)C(=O)c2cc(NC(=O)NC3CCCCC3)ccc2O1`, for which the activity score was -8.53%.

Regarding `CO[C@@H]1CN(C)C(=O)c2cc(NC(=O)C3CC3)ccc2OC[C@@H](C)N(C(=O)c2ccncc2)C[C@H]1C`, the activity score was 0.045%.

With `CN(C)C(=O)c1ccc(-c2ccc([C@@H]3[C@@H](CO)N4CCCCN(Cc5cncnc5)C[C@@H]34)cc2)cc1`, the activity score was -3.82%.

Consider `O=C(c1ccccc1F)N1C[C@@H]2[C@H](c3ccccc31)[C@H](CO)N2C(=O)C1CCCC1`, for which the activity score was 6.27%.

In the case of `O=C(C1CCC1)N1C[C@H]2[C@@H](c3ccccc31)[C@@H](CO)N2C(=O)c1ccccc1F`, the activity score is 115% (active).

With `O=C(c1cccnc1)N1C[C@@H]2[C@H](c3ccccc31)[C@@H](CO)N2C(=O)Nc1ccc(F)cc1`, the activity score was 52.2%.

With `O=C(c1cccnc1)N1C[C@H]2[C@@H](c3ccccc31)[C@H](CO)N2C(=O)C1CCCCC1`, the activity score was -1.65%.

In the case of `O=C(C1CCC1)N1C[C@@H]2[C@H](c3ccccc31)[C@H](CO)N2C(=O)c1ccccc1`, the activity score is 53.9%.

In the case of `O=C(c1cccnc1)N1C[C@H]2[C@@H](c3ccccc31)[C@H](CO)N2C(=O)C1CC1`, the activity score was 101% (active).

As for `COc1ccccc1-c1cn(CC[C@H]2CC[C@H](NC(=O)C3CCOCC3)[C@@H](CO)O2)nn1`, the activity score is -2.48%.

As for `C[C@@H]1CN([C@H](C)CO)S(=O)(=O)c2ccc(-c3ccccc3)cc2O[C@@H]1CN(C)C(=O)C1CC1`, the activity score is 1.27%.

On to `Cn1cnc(CCNC(=O)C[C@H]2CC[C@H]3[C@@H](COC[C@H](O)CN3C(=O)C3CCCC3)O2)c1`, for which the activity score was 2.13%.

With `C[C@@H]1CCCCO[C@@H](CN(C)C(=O)Nc2ccc(F)cc2)[C@H](C)CN([C@@H](C)CO)C(=O)c2cc(NS(=O)(=O)c3ccccc3)ccc2O1`, the activity score was -2.99%.

For the molecule `CCCC(=O)Nc1ccc2c(c1)C(=O)N(C)[C@H]1CC[C@@H](CC(=O)NCc3ccccc3)O[C@@H]1CO2`, the activity score was 6.07%.

As for `COc1cccc(S(=O)(=O)N2C[C@@H](O)COC[C@@H]3O[C@H](CC(=O)N4CCN(C)CC4)CC[C@H]32)c1`, the activity score is 25.3%.

For the molecule `O=C(C1CCC1)N1C[C@H]2[C@@H](c3ccccc31)[C@H](CO)N2C(=O)Nc1cccc(F)c1`, the activity score is 4.33%.

Consider `CN1c2ccc(C#Cc3cccnc3)cc2[C@H]2[C@H](CCN2S(=O)(=O)c2ccccc2)[C@@H]1CO`, for which the activity score is -20.3%.

For `C[C@H]1CN([C@@H](C)CO)C(=O)c2cc(NC(=O)Cn3cnnn3)ccc2O[C@@H]1CN(C)CC1CCCCC1`, the activity score was -6.95%.

As to `C[C@H]1CN([C@@H](C)CO)C(=O)c2cc(Br)cnc2O[C@@H]1CN(C)C(=O)c1ccccc1F`, the activity score is 1.14%.

In the case of `C[C@@H]1CCCCO[C@H](CN(C)Cc2ccc3c(c2)OCO3)[C@H](C)CN([C@@H](C)CO)C(=O)c2cc(NS(=O)(=O)c3cn(C)cn3)ccc2O1`, the activity score was 0.464%.

For `C[C@H]1CCCCO[C@H](CN(C)CC2CCCCC2)[C@@H](C)CN([C@@H](C)CO)C(=O)c2cc(NS(=O)(=O)c3ccc(Cl)cc3)ccc2O1`, the activity score was 19.2%.

On to `Cc1noc(C)c1S(=O)(=O)Nc1ccc2c(c1)C(=O)N([C@@H](C)CO)C[C@@H](C)[C@@H](CN(C)S(=O)(=O)c1ccccc1)O2`, for which the activity score was -1.76%.

Turning to `C[C@H]1CN([C@@H](C)CO)C(=O)c2cccc(NC(=O)C3CC3)c2O[C@@H]1CN(C)S(=O)(=O)c1ccc(F)cc1`, the activity score was -5.43%.

Take `CN(C)CC(=O)Nc1ccc2c(c1)[C@@H]1C[C@H](CC(=O)NCc3ccc(Cl)cc3)O[C@@H](CO)[C@@H]1O2`: the activity score is 26.4%.

In the case of `COCC(=O)Nc1ccc2c(c1)C(=O)N(C)[C@@H]1CC[C@H](CC(=O)NCC3CCCCC3)O[C@H]1CO2`, the activity score was -1.78%.

For the molecule `CNC(=O)C[C@@H]1CC[C@@H]2[C@@H](COc3ccc(NC(=O)Cc4cccs4)cc3C(=O)N2C)O1`, the activity score was 3.32%.

On to `CC(C)C#Cc1ccc2c(c1)O[C@@H](CN(C)C(=O)C1CC1)[C@H](C)CN([C@H](C)CO)S2(=O)=O`, for which the activity score was 1.46%.

In the case of `O=S(=O)(Cc1ccccc1)N1CCCCN2[C@H](CO)[C@@H](c3ccc(-c4cncnc4)cc3)[C@H]2C1`, the activity score is -10.2%.

Turning to `COc1ccc(NC(=O)N(C)C[C@@H]2OCCCC[C@H](C)Oc3ccc(NS(=O)(=O)c4cccs4)cc3C(=O)N([C@@H](C)CO)C[C@@H]2C)cc1`, the activity score was -14.6%.

For the molecule `C[C@H]1CN([C@@H](C)CO)C(=O)c2cccc(NS(C)(=O)=O)c2O[C@@H]1CN(C)C(=O)Nc1ccc(F)cc1`, the activity score is -0.709%.

As to `COCC(=O)N(C)C[C@H]1Oc2ncc(-c3cccc(OC)c3)cc2C(=O)N([C@H](C)CO)C[C@H]1C`, the activity score is 11.3%.

Take `CO[C@H]1CN(C)C(=O)c2ccc(NS(=O)(=O)c3cn(C)cn3)cc2OC[C@@H](C)N(C)C[C@@H]1C`: the activity score is -8.25%.

Take `C[C@@H]1CN([C@H](C)CO)C(=O)Cc2cc(NC(=O)CCCN(C)C)ccc2O[C@H]1CN(C)S(=O)(=O)c1cccs1`: the activity score was 4.48%.

As to `CCC(=O)N1[C@@H](CO)[C@@H]2c3ccccc3N(C(=O)c3cnccn3)C[C@@H]21`, the activity score was -8.18%.

As for `O=C(N[C@@H]1CC[C@@H](CCNS(=O)(=O)Cc2ccccc2)O[C@@H]1CO)c1ccccc1F`, the activity score was -4.32%.

For the molecule `CC(C)NC(=O)N[C@@H]1CC[C@@H](CCNS(=O)(=O)Cc2ccccc2)O[C@@H]1CO`, the activity score was -4.26%.

With `O=C(N[C@H]1CC[C@@H](CCNS(=O)(=O)Cc2ccccc2)O[C@H]1CO)c1ccccc1F`, the activity score was 170% (active).

`C[C@@H]1CCCCO[C@H](CN(C)C(=O)Cc2ccccc2)[C@@H](C)CN([C@@H](C)CO)C(=O)c2cc(NC(=O)c3ccccc3)ccc2O1`: the activity score is 0.371%.

Take `COCCCNC(=O)[C@@]1(C)c2ccccc2C(=O)N(Cc2ccc(OC(F)(F)F)cc2)[C@H]1c1ccc(CO)cc1`: the activity score was 2.89%.

As to `CC(C)N1C(=O)[C@@]2(Cc3ccccc31)c1ccccc1C(=O)N(C1CCCCC1)[C@H]2c1ccc(CO)cc1`, the activity score is 69%.

Regarding `COc1ccc(CCN2C(=O)[C@@]3(Cc4ccccc42)c2ccccc2C(=O)N(Cc2ccccc2C(F)(F)F)[C@H]3c2ccc(CO)cc2)cc1`, the activity score is 153% (active).

For the molecule `COc1ccccc1NC(=O)N(C)C[C@@H]1Oc2ncc(Br)cc2C(=O)N([C@@H](C)CO)C[C@@H]1C`, the activity score was 19.9%.

Turning to `CCOC(=O)C(=CNc1cccc(C)n1)C(=O)OCC`, the activity score is -12%.

For `CCOC(=O)C(=Cc1ccccc1OC)C(=O)OCC`, the activity score is 448% (active).

Regarding `CCOC(=O)C(=Cc1ccccc1)C(=O)c1ccccc1`, the activity score was -13%.

As for `COc1ccc(-c2cnc3c(c2)C(=O)N([C@@H](C)CO)C[C@@H](C)[C@H](CN(C)C)O3)cc1`, the activity score is -4.93%.

On to `N#Cc1cccc(-c2ccc3c(c2)[C@H]2[C@H](CCN2S(=O)(=O)c2ccc(F)cc2)[C@@H](CO)N3)c1`, for which the activity score was -15.3%.

For the molecule `C[C@H]1CN([C@@H](C)CO)C(=O)Cc2cc(NC(=O)Nc3ccccc3)ccc2O[C@H]1CN(C)S(=O)(=O)c1cn(C)cn1`, the activity score is 2.53%.

As to `C[C@H](CO)N1C[C@H](C)[C@@H](CN(C)Cc2cccnc2)Oc2cc(C#CC3CC3)ccc2S1(=O)=O`, the activity score was 8.44%.

Turning to `COc1cccc(C(=O)Nc2ccc3c(c2)OC[C@H](C)N(C(C)=O)C[C@@H](C)[C@@H](OC)CN(C)C3=O)c1`, the activity score was 43.4%.

Turning to `C/C=C/c1ccc2c(c1)O[C@@H](CN(C)C(=O)Cc1ccccc1)[C@H](C)CN([C@@H](C)CO)S2(=O)=O`, the activity score was 58.8%.

Turning to `CC(C)NC(=O)N(C)C[C@H]1Oc2ccc(NC(=O)CCC(F)(F)F)cc2CC(=O)N([C@@H](C)CO)C[C@@H]1C`, the activity score was -4.49%.

Consider `CCCC(=O)Nc1ccc2c(c1)C(=O)N(C)[C@H]1CC[C@@H](CC(=O)NCC(F)(F)F)O[C@@H]1CO2`, for which the activity score is -2.34%.

As to `CO[C@@H]1CN(C)C(=O)c2cc(NC(=O)C3CCCC3)ccc2OC[C@H](C)N(C)C[C@@H]1C`, the activity score was 3.06%.

Take `Cc1noc(C)c1NC(=O)Nc1ccc2c(c1)CC(=O)N([C@@H](C)CO)C[C@@H](C)[C@@H](CN(C)C(=O)NC(C)C)O2`: the activity score is -0.961%.

Regarding `C[C@H](O)C#Cc1cnc2c(c1)C(=O)N([C@H](C)CO)C[C@H](C)[C@H](CN(C)C(=O)c1ccc(F)cc1)O2`, the activity score was 9.52%.

Consider `CC(C)NC(=O)N(C)C[C@@H]1Oc2c(cccc2N(C)C)C(=O)N([C@@H](C)CO)C[C@H]1C`, for which the activity score is -11.2%.

Turning to `C[C@H]1CN([C@@H](C)CO)C(=O)c2cc(NS(=O)(=O)c3cccs3)ccc2O[C@@H]1CN(C)C(=O)Nc1ccccc1`, the activity score is -9.65%.

On to `C[C@@H]1CN([C@@H](C)CO)S(=O)(=O)c2ccc(C#CCN(C)C)cc2O[C@@H]1CN(C)CC1CC1`, for which the activity score was 33.3%.

As to `C[C@@H]1CCCCO[C@@H](CN(C)Cc2ccc(C(=O)O)cc2)[C@H](C)CN([C@@H](C)CO)C(=O)c2cc(NC(=O)C3CCCCC3)ccc2O1`, the activity score was 3.06%.
